{
  "source": "patent US6930203B2",
  "about": "“Gelling agents or thickeners” (Applied NanoSystems B.V., priority 2001, dated 2005)",
  "test": "Solvent scope of N,N′-dialkylaldaramides (1%) or N,N′-dialkylpentaramides (1%): gelation/solubility behaviour in solvents",
  "format": "physicochemical",
  "design": "key: g = gelation; s = soluble; p = precipitates; c = crystallizes; ns = not soluble; v = viscous; g* = unstable gel, precipitates; cg = crystalline gel",
  "conditions": "1% gelling agent",
  "text": "It will be understood that the use of the present gelling agents or thickeners to prepare a gel or to thicken a composition is also encompassed by the invention. As is well known, gelling behavior of compounds or compositions is highly unpredictable. […] Preferably, the gelling phenomenon is thermo reversible.\nPreferred examples include aromatic and nonaromatic hydrocarbons, alcohols, ethers, esters, aldehydes, alkanoic acids, epoxides, amines, halogenated hydrocarbons, silicon oils, vegetable oils, phosphoric esters, sulfoxides, water and mixtures thereof. In order to obtain a gel, the gelling agent or thickener is preferably mixed with the composition to be transformed to a gel in an amount of between 0.01 and 50 wt. %, based on the weight of the composition. In a preferred embodiment, the mixture of the gelling agent or thickener and the composition is heated to allow for an even better gel formation or thickening. Typically, the heating will involve raising the temperature of the mixture to about 30-175° C. until a clear solution is obtained. In an alternative embodiment, the gelling agent is first dissolved in a polar or apolar solvent and then added to or sprayed into a composition or solvent to be converted into a gel.\nSolvent scope of N,N′-dialkylaldaramides (1%) or N,N′-dialkylpentaramides (1%) 1-24 refers to the compounds prepared in Examples 1-23)",
  "data": [
    {"substance": "dicyclohexyl D-mannaramide [Example 6]", "values": [
      {"measurement": "Gelation/solubility behaviour in 1,2-dichloroethane", "setting": "1,2-dichloroethane", "result": "p"},
      {"measurement": "Gelation/solubility behaviour in Cyclohexane", "setting": "Cyclohexane", "result": "ns"},
      {"measurement": "Gelation/solubility behaviour in Toluene", "setting": "Toluene", "result": "ns"},
      {"measurement": "Gelation/solubility behaviour in n-butylacetate", "setting": "n-butylacetate", "result": "ns"}
    ]}
  ]
}
